Source: patent publication US6271266A, “Use of idebenone and analogues against β amyloid induced cytotoxicity” (Takeda Chemical Industries, Ltd., priority 1996, dated 2001)

Test: Acute toxicity in mice
Conditions: mouse, in vivo, both sexes

For `COC1=C(OC)C(=O)C(CCCCCCCCCCO)=C(C)C1=O` [idebenone, 6-(10-hydroxydecyl)-2,3-dimethoxy-5-methyl-1,4-benzoquinone], the LD50 was ≥ 10000 mg/kg.
